Results as given in US12565501B2, “Muscarinic acetylcholine M1 receptor antagonists” (Contineum Therapeutics, Inc., priority 2019, dated 2026).

Protein sequences, listed by entry. Tags and fused reporters are not part of them.
UniProt P11229, whole entry: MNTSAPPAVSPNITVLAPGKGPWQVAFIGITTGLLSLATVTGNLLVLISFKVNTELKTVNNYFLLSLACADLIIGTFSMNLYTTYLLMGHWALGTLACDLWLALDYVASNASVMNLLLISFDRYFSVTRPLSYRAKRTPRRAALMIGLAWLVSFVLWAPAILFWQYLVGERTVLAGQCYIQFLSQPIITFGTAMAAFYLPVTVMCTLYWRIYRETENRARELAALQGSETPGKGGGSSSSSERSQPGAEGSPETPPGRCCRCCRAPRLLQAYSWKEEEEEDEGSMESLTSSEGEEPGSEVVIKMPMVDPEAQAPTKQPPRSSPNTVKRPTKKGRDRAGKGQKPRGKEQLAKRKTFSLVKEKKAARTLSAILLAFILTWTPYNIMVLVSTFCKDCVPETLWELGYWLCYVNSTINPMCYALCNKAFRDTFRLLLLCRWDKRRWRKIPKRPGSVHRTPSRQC
UniProt P08172, whole entry: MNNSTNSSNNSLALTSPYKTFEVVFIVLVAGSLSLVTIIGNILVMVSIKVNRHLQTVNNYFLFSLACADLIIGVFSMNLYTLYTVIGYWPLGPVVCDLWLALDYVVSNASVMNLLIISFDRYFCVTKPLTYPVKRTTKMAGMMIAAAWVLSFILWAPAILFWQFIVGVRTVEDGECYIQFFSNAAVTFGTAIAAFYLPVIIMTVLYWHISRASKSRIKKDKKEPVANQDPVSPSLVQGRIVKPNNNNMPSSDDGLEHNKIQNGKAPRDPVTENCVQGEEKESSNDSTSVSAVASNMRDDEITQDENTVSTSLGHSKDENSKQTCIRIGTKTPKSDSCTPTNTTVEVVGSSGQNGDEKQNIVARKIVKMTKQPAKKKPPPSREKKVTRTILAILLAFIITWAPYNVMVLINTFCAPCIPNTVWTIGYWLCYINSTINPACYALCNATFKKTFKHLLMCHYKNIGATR
UniProt P20309, whole entry: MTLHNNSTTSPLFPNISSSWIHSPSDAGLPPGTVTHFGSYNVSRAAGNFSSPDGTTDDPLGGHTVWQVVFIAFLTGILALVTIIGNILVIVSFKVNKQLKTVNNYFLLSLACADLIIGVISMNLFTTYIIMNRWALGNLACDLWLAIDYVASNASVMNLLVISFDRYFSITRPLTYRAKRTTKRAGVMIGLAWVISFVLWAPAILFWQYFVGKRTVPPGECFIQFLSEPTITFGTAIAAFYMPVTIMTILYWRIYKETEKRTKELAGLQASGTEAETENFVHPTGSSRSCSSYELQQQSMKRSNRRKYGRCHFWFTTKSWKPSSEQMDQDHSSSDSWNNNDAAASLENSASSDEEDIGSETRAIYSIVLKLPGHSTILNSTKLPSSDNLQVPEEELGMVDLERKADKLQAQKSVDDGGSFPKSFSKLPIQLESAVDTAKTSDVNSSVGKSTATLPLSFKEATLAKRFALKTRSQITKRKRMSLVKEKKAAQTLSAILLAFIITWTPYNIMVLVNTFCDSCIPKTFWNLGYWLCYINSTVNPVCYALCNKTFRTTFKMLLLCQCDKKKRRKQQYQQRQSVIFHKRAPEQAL
UniProt P08173, whole entry: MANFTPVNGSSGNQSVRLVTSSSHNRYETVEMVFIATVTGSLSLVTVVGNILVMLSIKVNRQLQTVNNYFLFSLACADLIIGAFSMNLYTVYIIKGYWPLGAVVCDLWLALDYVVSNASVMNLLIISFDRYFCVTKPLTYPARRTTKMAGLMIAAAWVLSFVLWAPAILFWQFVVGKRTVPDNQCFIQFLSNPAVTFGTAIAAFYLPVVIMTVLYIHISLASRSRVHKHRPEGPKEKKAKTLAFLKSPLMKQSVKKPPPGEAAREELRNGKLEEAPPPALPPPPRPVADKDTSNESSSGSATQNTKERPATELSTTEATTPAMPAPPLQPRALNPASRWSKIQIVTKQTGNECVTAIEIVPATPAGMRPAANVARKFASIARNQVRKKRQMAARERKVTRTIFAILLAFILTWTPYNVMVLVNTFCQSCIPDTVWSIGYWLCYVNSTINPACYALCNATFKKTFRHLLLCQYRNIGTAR

Experiments:
[1] = target: human M1 receptor (Homo sapiens, UniProt P11229); test: In vitro functional assay of muscarinic acetylcholine receptor activity (aequorin calcium flux, reversal of EC80 acetylcholine response); details: read-out: M1 IC50; CHO-K1 cells stably expressing human M1 receptor with aequorin; acetylcholine at EC80; calcium flux (luminescence)
[2] = target: human M2 receptor (Homo sapiens, UniProt P08172); test: In vitro functional assay, reversal of EC80 acetylcholine response in CHO-K1 aequorin cells; format: cell-based; details: read-out: M2 IC50, CHO-K1 cells stably expressing human M2 receptor with aequorin
Procedure: (§1) CHO-K1 cells stably expressing human M1 receptor with aequorin (Perkin Elmer) were grown in F12 media (Gibco) containing 10% FBS (ATCC), 0.4 mg/mL geneticin (Sigma-Aldrich) and 0.25 mg/mL Zeocin (Invitrogen). Cells were grown as per the manufacturer's protocol. For compound testing, cells were grown to confluency and detached gently with Accutase (Sigma-Aldrich) followed by centrifugation for 5 min at 150× g. Cells were then re-suspended in assay buffer (i.e. DMEM/F-12 HEPES without phenol red (Invitrogen) with 0.1% BSA (Sigma-Aldrich)) at a density of 5×10^6 cells/ml. Under sterile conditions, 5 μM coelenterazine (Invitrogen) was added to the cells, mixed, then incubated at room temperature protected from light, with gentle agitation, for 4 h.
(§2) Primary compound plates were prepared in 100% DMSO in opaque 96-well plates (VWR) and serially diluted in half log increments. Secondary compound plates were prepared at 3× concentration in assay buffer. Compounds were added to white, clear bottom tissue culture treated 96-well plates (Fisher Scientific). Coelenterazine-loaded cells were then added at 5×10^5 cells/well.
(§3) Compounds and cells were incubated at room temperature for 30 min in the dark. Acetylcholine at the EC80 concentration was added and calcium flux measured using a FlexStation 3 (Molecular Devices). Sigmoidal dose-response curves were generated by measuring luminescence over 40 sec and calculating the area under the curve. Dose response curves and IC50 values were generated using Prism (GraphPad). Compounds were tested at a final concentration range of 100 μM to […] in 0.1% DMSO.
(§4) CHO-K1 cells stably expressing human M2, M3 and M4 receptors, respectively, with aequonin (Perkin Elmer) were used to assess a test compound's ability to dose-dependently reverse the EC80 acetylcholine response. The IC50 of the compounds was calculated from the dose response curve.

[3] = target: human M3 receptor (Homo sapiens, UniProt P20309); test: as above; format: cell-based; details: read-out: M3 IC50, CHO-K1 cells stably expressing human M3 receptor with aequorin
Procedure: as §1, §2, §3, §4

[4] = target: human M4 receptor (Homo sapiens, UniProt P08173); test: as above; format: cell-based; details: read-out: M4 IC50, CHO-K1 cells stably expressing human M4 receptor with aequorin
Procedure: as §1, §2, §3, §4

Compound | IC50 [1] | IC50 [2] | IC50 [3] | IC50 [4]
COc1c(F)cccc1C(C)NCC(=O)N1CC2CCC(C1)N2c1ccc(C#N)cn1 (single isomer, unassigned) [Example 319-entA] | < 10 nM | – | – | –
Cc1cc(C2(OCC(=O)N3CC4CCC(C3)N4c3ccc(C#N)cn3)CCC2)ccn1 | 10 to 100 nM | – | – | –
N#Cc1ccc(N2C3CCC2CN(C(=O)CCNC(c2ccc(F)c(F)c2)C(F)F)C3)nc1 (single isomer, unassigned) [Example 320-entA] | 10 to 100 nM | – | – | –
COc1c(F)cccc1C(C)NCC(=O)N1CC2CCC(C1)N2c1ccc(C#N)cn1 (single isomer, unassigned) [Example 319-entB] | 100 to 1000 nM | – | – | –
N#Cc1ccc(N2C3CCC2CN(C(=O)COC2(c4ccnc(Br)c4)CCC2)C3)nc1 | 10 to 100 nM | – | – | –
CC(NCCC(=O)N1CC2CCC(C1)N2c1ccc(C#N)cn1)c1cccc2ncccc12 (single isomer, unassigned) | < 10 nM | 1000 to 10000 nM | 1000 to 10000 nM | 1000 to 10000 nM

Next, values leading:

IC50 [1] | IC50 [2] | IC50 [3] | IC50 [4] | Compound
< 10 nM | 1000 to 10000 nM | 100 to 1000 nM | – | CC(OCC(=O)N1CC2CCC(C1)N2c1ccc(C#N)cn1)c1cccc2ncnn12 (single isomer, unassigned) [Example 321-entB]
< 10 nM | – | – | – | COc1cccc(C(CO)CCC(=O)N2CC3CCC(C2)N3c2ccc(C#N)cn2)c1 (single isomer, unassigned) [Example 322-entA]
100 to 1000 nM | – | – | – | COc1cccc(C(CO)CCC(=O)N2CC3CCC(C2)N3c2ccc(C#N)cn2)c1 (single isomer, unassigned) [Example 322-entB]
100 to 1000 nM | – | – | – | CC(OCC(=O)N1CC2CCC(C1)N2c1ccc(C#N)cn1)c1cccc2ncnn12 (single isomer, unassigned) [Example 321-entA]
< 10 nM | – | – | – | N#Cc1ccc(N2C3CCC2CN(C(=O)CCNC(c2ccc(F)c(F)c2)C(F)F)C3)nc1 (single isomer, unassigned) [Example 320-entB]
